Test results as given in patent publication US20240376128A1, “N-CYCLOPROPYLPYRIDO [4, 3-D] PYRIMIDIN-4-AMINE DERIVATIVES AND USES THEREOF” (Jacobio Pharmaceuticals Co., Ltd., priority 2021, published 2024).

The chains behind the UniProt entries cited, without tags or fusion partners. Where a name states a change or a piece, a line headed by the entry shows the natural chain unless it says otherwise.
UniProt P01116: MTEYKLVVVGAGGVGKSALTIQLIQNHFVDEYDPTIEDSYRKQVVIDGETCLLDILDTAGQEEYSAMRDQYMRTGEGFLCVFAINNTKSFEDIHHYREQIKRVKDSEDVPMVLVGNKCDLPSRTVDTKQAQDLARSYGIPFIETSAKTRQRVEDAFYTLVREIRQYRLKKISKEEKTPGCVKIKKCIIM

Target: K-Ras G12D (Homo sapiens, UniProt P01116, G12D)
Assay: SOS1 catalyzed nucleotide exchange assay (GDP form K-Ras), TR-FRET
Details: read-out: Biochemical assays, IC50, K-Ras G12D GDP

Question: For `O=C(O)C(F)(F)F.[2H]C([2H])([2H])N(c1nc(OC[C@@]23CCCN2C[C@H](F)C3)nc2c(F)c(-c3cc(O)cc4ccc(F)c(C#C)c34)ncc12)[C@H]1C[C@@H]1F` [Compound 7, 5-ethynyl-6-fluoro-4-(8-fluoro-4-(((1S,2S)-2-fluorocyclopropyl)(methyl-d3)amino)-2-(((2R,7aS)-2-fluorotetrahydro-1H-pyrrolizin-7a(5H)-yl)methoxy)pyrido[4,3-d]pyrimidin-7-yl)naphthalen-2-ol 2,2,2-trifluoroacetic acid], which IC50 is on record?
Answer: The IC50 was 0.701 nM.

Question: For `C#Cc1c(F)ccc2cc(O)cc(-c3ncc4c(N(C)C5CC56CCC6)nc(OC[C@@]56CCCN5C[C@H](F)C6)nc4c3F)c12` (stereo partly drawn) [Compound 52, 5-ethynyl-6-fluoro-4-(8-fluoro-2-(((2R,7aS)-2-fluorotetrahydro-1H-pyrrolizin-7a(5H)-yl)methoxy)-4-(methyl(spiro[2.3]hexan-1-yl)amino)pyrido[4,3-d]pyrimidin-7-yl)naphthalen-2-ol], which IC50 is on record?
Answer: The IC50 was 208 nM.

Question: With `C#Cc1c(F)ccc2cc(O)cc(-c3ncc4c(NC5(CF)CC5)nc(OC[C@@]56CCCN5C[C@H](F)C6)nc4c3F)c12` [Compound 25, 5-ethynyl-6-fluoro-4-(8-fluoro-4-((1-(fluoromethyl)cyclopropyl)amino)-2-(((2R,7aS)-2-fluorotetrahydro-1H-pyrrolizin-7a(5H)-yl)methoxy)pyrido[4,3-d]pyrimidin-7-yl)naphthalen-2-ol] as the molecule, how does the IC50 read?
Answer: The IC50 was 8.59 nM.

Question: How did the IC50 turn out when `C#Cc1c(F)ccc2cc(O)cc(-c3ncc4c(NC5CC5C)nc(OC[C@@]56CCCN5C[C@H](F)C6)nc4c3F)c12` (stereo partly drawn) [Compound 22, 5-ethynyl-6-fluoro-4-(8-fluoro-2-(((2R,7aS)-2-fluorotetrahydro-1H-pyrrolizin-7a(5H)-yl)methoxy)-4-((2-methylcyclopropyl)amino)pyrido[4,3-d]pyrimidin-7-yl)naphthalen-2-ol] was run?
Answer: The IC50 was 12.8 nM.

Question: Which IC50 does the source give for `C#Cc1c(F)ccc2cc(O)cc(-c3ncc4c(N(C)C5CC56CC6)nc(OC[C@@]56CCCN5C[C@H](F)C6)nc4c3F)c12` (stereo partly drawn) [Compound 51, 5-ethynyl-6-fluoro-4-(8-fluoro-2-(((2R,7aS)-2-fluorotetrahydro-1H-pyrrolizin-7a(5H)-yl)methoxy)-4-(methyl(spiro[2.2]pentan-1-yl)amino)pyrido[4,3-d]pyrimidin-7-yl)naphthalen-2-ol] here?
Answer: The IC50 was 61.7 nM.

Question: `C#Cc1c(F)ccc2cc(O)cc(-c3ncc4c(N(CCF)C5CC5)nc(OC[C@@]56CCCN5C[C@H](F)C6)nc4c3F)c12` [Compound 37, 4-(4-(cyclopropyl(2-fluoroethyl)amino)-8-fluoro-2-(((2R,7aS)-2-fluorotetrahydro-1H-pyrrolizin-7a(5H)-yl)methoxy)pyrido [4,3-d]pyrimidin-7-yl)-5-ethynyl-6-fluoro-naphthalen-2-ol 2,2,2-trifluoroacetic acid] was tested. Which IC50 did it give?
Answer: The IC50 was 77.7 nM.

Question: How did the IC50 turn out when `C#Cc1c(F)ccc2cc(O)cc(-c3ncc4c(N(C)[C@@H]5C[C@H]5F)nc(OC[C@@]56CCCN5C[C@H](O)C6)nc4c3F)c12` (mixture of isomers) [Compound 9, (2R,7aS)-7a-(((7-(8-ethynyl-7-fluoro-3-hydroxynaphthalen-1-yl)-8-fluoro-4-((trans-2-fluorocyclopropyl)(methyl)amino)pyrido[4,3-d]pyrimidin-2-yl)oxy)methyl)hexahydro-1H-pyrrolizin-2-ol 2,2,2-trifluoroacetic acid] was run?
Answer: The IC50 was 2 nM.

Question: How did the IC50 turn out when `C#Cc1c(F)ccc2cc(O)cc(-c3nc(Cl)c4c(N(C)C5CC5)nc(OC[C@@]56CCCN5C[C@H](F)C6)nc4c3F)c12` [Compound 33, 4-(5-chloro-4-(cyclopropyl(methyl)amino)-8-fluoro-2-(((2R,7aS)-2-fluorotetrahydro-1H-pyrrolizin-7a(5H)-yl)methoxy)pyridin [4,3-d]pyrimidin-7-yl)-5-ethynyl-6-fluoro-naphthalen-2-ol 2,2,2-trifluoroacetic acid] was run?
Answer: Its IC50 is 6.07 nM.

Question: `C#Cc1c(F)ccc2cc(O)cc(-c3ncc4c(N(C)[C@@H]5C[C@H]5OC)nc(OC[C@@]56CCCN5C[C@H](F)C6)nc4c3F)c12` [Compound 41, 5-ethynyl-6-fluoro-4-(8-fluoro-2-(((2R,7aS)-2-fluorotetrahydro-1H-pyrrolizin-7a(5H)-yl)methoxy)-4-((trans-2-methoxycyclo-propyl)(methyl)amino)pyrido[4,3-d]pyrimidin-7-yl)naphthalen-2-ol] was tested. Which IC50 did it give?
Answer: Its IC50 is 282 nM.

Question: Which IC50 does the source give for `C#Cc1c(F)ccc2cc(O)cc(-c3ncc4c(N(CC(F)F)C5CC5)nc(OC[C@@]56CCCN5C[C@H](F)C6)nc4c3F)c12` [Compound 17, 4-(4-(cyclopropyl(2,2-difluoroethyl)amino)-8-fluoro-2-(((2R,7aS)-2-fluorotetrahydro-1H-pyrrolizin-7a(5H)-yl)methoxy)pyrido[4,3-d]pyrimidin-7-yl)-5-ethynyl-6-fluoronaphthalen-2-ol 2,2,2-trifluoroacetic acid] here?
Answer: The IC50 was 8.94 nM.

Question: How did the IC50 turn out when `[2H]C([2H])([2H])N(c1nc(OC[C@@]23CCCN2C[C@H](F)C3)nc2c(F)c(-c3cc(OC(=O)NC)cc4ccc(F)c(C#C)c34)ncc12)C1CC1` [Compound 8, 4-(4-(cyclopropyl(methyl-d3)amino)-8-fluoro-2-(((2R,7aS)-2-fluorotetrahydro-1H-pyrrolizin-7a(5H)-yl)methoxy)pyrido[4,3-d]pyrimidin-7-yl)-5-ethynyl-6-fluoronaphthalen-2-yl methylcarbamate] was run?
Answer: The IC50 was 46.9 nM.

Question: For `C#Cc1c(F)ccc2cc(O)cc(-c3ncc4c(NC5C6CCCCC65)nc(OC[C@@]56CCCN5C[C@H](F)C6)nc4c3F)c12` (stereo partly drawn) [Compound 55, 4-(4-(bicyclo[4.1.0]heptan-7-ylamino)-8-fluoro-2-(((2R,7aS)-2-fluorotetrahydro-1H-pyrrolizin-7a(5H)-yl)methoxy)pyrido[4,3-d]pyrimidin-7-yl)-5-ethynyl-6-fluoronaphthalen-2-ol], which IC50 is on record?
Answer: Its IC50 is 774 nM.

Question: Which IC50 does the source give for `C#Cc1c(F)ccc2cc(O)cc(-c3ncc4c(N(C)[C@@H]5C[C@H]5COC)nc(OC[C@@]56CCCN5C[C@H](F)C6)nc4c3F)c12` [Compound 42, 5-ethynyl-6-fluoro-4-(8-fluoro-2-(((2R,7aS)-2-fluorotetrahydro-1H-pyrrolizin-7a(5H)-yl)methoxy)-4-((trans-2-(methoxymethyl)cyclopropyl)(methyl)amino)pyrido[4,3-d]pyrimidin-7-yl)naphthalen-2-ol 2,2,2-trifluoroacetic acid] here?
Answer: The IC50 was 1940 nM.

Question: How did the IC50 turn out when `C#Cc1c(F)ccc2cc(O)cc(-c3nc(C#N)c4c(N(C)C5CC5)nc(OC[C@@]56CCCN5C[C@H](F)C6)nc4c3F)c12` [Compound 35, 4-(cyclopropyl(methyl)amino)-7-(8-ethynyl-7-fluoro-3-hydroxynaphthalen-1-yl)-8-fluoro-2-(((2R,7aS)-2-fluorotetrahydro-1H-pyrrolizin-7a(5H)-yl)methoxy)pyrido[4,3-d] pyrimidine-5-carbonitrile] was run?
Answer: Its IC50 is 380 nM.

Question: How did the IC50 turn out when `C#Cc1c(F)ccc2cc(O)cc(-c3ncc4c(N(C)[C@@H]5C[C@H]5C(F)(F)F)nc(OC[C@@]56CCCN5C[C@H](F)C6)nc4c3F)c12` [Compound 43, 5-ethynyl-6-fluoro-4-(8-fluoro-2-(((2R,7aS)-2-fluorotetrahydro-1H-pyrrolizin-7a(5H)-yl)methoxy)-4-(methyl(trans-2-(trifluoro-methyl)cyclopropyl)amino)pyrido[4,3-d]pyrimidin-7-yl)naphthalen-2-ol 2,2,2-trifluoroacetic acid] was run?
Answer: Its IC50 is 75.9 nM.

Question: Which IC50 does the source give for `C#Cc1c(F)ccc2cc(O)cc(-c3ncc4c(N(C)[C@H]5C[C@@H]5C#N)nc(OC[C@@]56CCCN5C[C@H](F)C6)nc4c3F)c12` (racemic) [Compound 44, trans-2-((7-(8-ethynyl-7-fluoro-3-hydroxynaphthalen-1-yl)-8-fluoro-2-(((2R,7aS)-2-fluorotetrahydro-1H-pyrrolizin-7a(5H)-yl)methoxy)pyrido[4,3-d]pyrimidin-4-yl) (methyl)amino)cyclopropane-1-carbonitrile 2,2,2-trifluoroacetic acid] here?
Answer: Its IC50 is 16.3 nM.

Question: Which IC50 does the source give for `C#Cc1c(F)ccc2cc(O)cc(-c3ncc4c(N(C)[C@H]5C[C@H]5F)nc(OC[C@@]56CCCN5C[C@H](F)C6)nc4c3F)c12` [Compound 12, 5-ethynyl-6-fluoro-4-(8-fluoro-4-(((1S,2R)-2-fluorocyclopropyl)(methyl)amino)-2-(((2R,7aS)-2-fluorotetrahydro-1H-pyrrolizin-7a(5H)-yl)methoxy)pyrido[4,3-d]pyrimidin-7-yl)naphthalen-2-ol 2,2,2-trifluoroacetic acid] here?
Answer: Its IC50 is 32.9 nM.

Question: `C#Cc1c(F)ccc2cc(O)cc(-c3nc(OC)c4c(NC5CC5)nc(OC[C@@]56CCCN5C[C@H](F)C6)nc4c3F)c12` [Compound 34, 4-(4-(cyclopropylamino)-8-fluoro-2-(((2R, 7aS)-2-fluorotetrahydro-1H-pyrrolizin-7a(5H)-yl)methoxy)-5-methoxypyrido[4,3-d]pyrimidin-7-yl)-5-ethynyl-6-fluoronaphthalen-2-ol] was tested. Which IC50 did it give?
Answer: The IC50 was 76.2 nM.

Question: How did the IC50 turn out when `C#Cc1c(F)ccc2cc(O)cc(-c3ncc4c(N(CC(=O)OCC)C5CC5)nc(OC[C@@]56CCCN5C[C@H](F)C6)nc4c3F)c12` [Compound 38, Ethyl N-cyclopropyl-N-(7-(8-ethynyl-7-fluoro-3-hydroxynaphthalen-1-yl)-8-fluoro-2-(((2R, 7aS)-2-fluorotetrahydro-1H-pyrrolizin-7a(5H)-yl)methoxy)pyrido[4,3-d]pyrimidin-4-yl)glycinate 2,2,2-trifluoroacetic acid] was run?
Answer: Its IC50 is 222 nM.

Question: `C#Cc1c(F)ccc2cc(O)cc(-c3ncc4c(NC5CC5)nc(OC[C@@]56CCCN5C[C@H](F)C6)nc4c3F)c12` [Compound 18, 4-(4-(cyclopropylamino)-8-fluoro-2-(((2R,7aS)-2-fluorotetrahydro-1H-pyrrolizin-7a(5H)-yl)methoxy)pyrido[4,3-d]pyrimidin-7-yl)-5-ethynyl-6-fluoronaphthalen-2-ol formic acid] was tested. Which IC50 did it give?
Answer: Its IC50 is 16.3 nM.

Question: How did the IC50 turn out when `C#Cc1c(F)ccc2cc(O)cc(-c3ncc4c(N(C)[C@@H]5C[C@@H]5F)nc(OC[C@@]56CCCN5C[C@H](F)C6)nc4c3F)c12` [Compound 13, 5-ethynyl-6-fluoro-4-(8-fluoro-4-(((1R,2S)-2-fluorocyclopropyl)(methyl)amino)-2-(((2R,7aS)-2-fluorotetrahydro-1H-pyrrolizin-7a(5H)-yl)methoxy)pyrido[4,3-d]pyrimidin-7-yl)naphthalen-2-ol] was run?
Answer: Its IC50 is 30.3 nM.
